Test results reported in PubChem BioAssay AID2052 (NMMLSC, 2009).
This is a selection; strong and weak results do not stand in their true shares. Some salts or complexes appear as unconnected parts, following the source record. The source made the active and inactive calls.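 Rule for the calls: active = response, share of CD8 T cells binding vesicles, and their 90th percentile fluorescence all below set limits (cut at about 80% in these data, passing the limit was not always enough); inactive = the rest, inconclusive results apart.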

Experiment: modulators of CD8 T cell-vesicle binding, primary screen, mouse 2C CD8+ T cells, flow cytometry (AID 2052);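 note: values below 100% mean blocked vesicle binding to the CD8+ T cells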
Conditions: 2C CD8+ T cell-vesicle binding, at 7 µM, active compounds read low
How it was run: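 incubation = binding step 1.5 h, 37 °C, antibody labelling 20 min, ice | test system = 2C mouse CD8+ T cells | read-out basis = percent CD8+ FL2 mean versus row control | controls = Peptide-free naked vesicles (low) and QL9 vesicles with 0.7% DMSO vehicle (high) | detection = flow cytometry of vesicle-bound cells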
In the case of `O=[N+]([O-])c1cc([N+](=O)[O-])c(Nc2ccccn2)c([N+](=O)[O-])c1`, the response (vesicle binding) is reported as inactive: 349%. With `CC(C)CC(=O)NC(Sc1ccc(Cl)cc1)C(Cl)(Cl)Cl` (stereo unspecified) the response (vesicle binding) was inactive: 631%. In the case of `O=C(NC(Sc1ccncn1)C(Cl)(Cl)Cl)c1ccccc1` (stereo unspecified), the response (vesicle binding) is reported as inactive: 152%. With `Cc1c2non([O-])c-2c(C)[n+](=O)[n+]1[O-]` the response (vesicle binding) was inactive: 499%. In the case of `Oc1ccccc1CNc1ccccn1`, the response (vesicle binding) is reported as inactive: 891%. For `Cc1ccc(OP(=O)(Nc2nccs2)Oc2ccc(C)cc2)cc1`, the response (vesicle binding) was inactive: 602%. In the case of `COc1ccccc1OP(=O)(Nc1ccc(C)cn1)Oc1ccccc1OC`, the response (vesicle binding) is reported as inactive: 326%. For `COc1ccc(OP(C)(=O)Nc2ccccn2)cc1` (stereo unspecified), the response (vesicle binding) was inactive: 302%. In the case of `CN1CCCC(OC(=O)C(c2ccccc2)c2ccccc2)C1` (stereo unspecified), the response (vesicle binding) is reported as inactive: 239%. For `CN(C)CCOC(=O)C(O)(c1ccccc1)C1CCCC1` (stereo unspecified), the response (vesicle binding) was inactive: 193%. For `Clc1ccc(Cl)c(NC2=NCC(CBr)S2)c1` (stereo unspecified), the response (vesicle binding) was inactive: 142%. For `NC(=O)c1cc([N+](=O)[O-])cc([N+](=O)[O-])c1N`, the response (vesicle binding) was inactive: 879%. For `Cc1ccc(N/C(=N/P(=O)(N2CCOCC2)N2CCOCC2)N2CCOCC2)cc1`, the response (vesicle binding) was inactive: 230%. For `CN(C(=O)Cc1ccc(Cl)c(Cl)c1)[C@H]1CCCC[C@H]1N1CCCC1`, the response (vesicle binding) was inactive: 625%. In the case of `COc1ccccc1OP(C)(=O)Nc1ccc(Br)cc1` (stereo unspecified), the response (vesicle binding) is reported as inactive: 364%. For `CC(=O)Nc1ccc(Oc2c([N+](=O)[O-])cc([N+](=O)[O-])cc2[N+](=O)[O-])cc1`, the response (vesicle binding) was inactive: 306%. In the case of `CC(=O)Nc1ccc([As](=O)(O)O)c(O)c1`, the response (vesicle binding) is reported as inactive: 233%. In the case of `COc1ccc2c(c1O)-c1c(O)c(OC)cc3c1[C@H](C2)[N+](C)(C)CC3.O=[N+]([O-])c1cc([N+](=O)[O-])c([O-])c([N+](=O)[O-])c1[O-]`, the response (vesicle binding) is reported as inactive: 338%. With `O=C(OC1CN2CCC1CC2)c1ccc([N+](=O)[O-])cc1` (stereo unspecified) the response (vesicle binding) was inactive: 603%. In the case of `CC(=O)c1ccc(N2CC2c2ccncc2)cc1` (stereo unspecified), the response (vesicle binding) is reported as inactive: 525%. With `C[C@H]1OP(=O)(Oc2ccccc2)C[C@@H]2O[C@@H]21` (stereo partly specified) the response (vesicle binding) was inactive: 492%. In the case of `C[C@@H]1C=CCP(=O)(Oc2ccccc2)O1` (stereo partly specified), the response (vesicle binding) is reported as inactive: 312%. In the case of `O=C(OCCN1CCN(CCOCc2ccccc2)CC1)C(O)(c1ccccc1)c1ccccc1`, the response (vesicle binding) is reported as inactive: 151%. For `Cc1ccccc1CN(C)C(=O)COC(=O)C(O)(c1ccccc1)c1ccccc1`, the response (vesicle binding) was inactive: 607%. In the case of `CP(=O)(Nc1ccccc1F)Oc1ccccc1` (stereo unspecified), the response (vesicle binding) is reported as inactive: 273%. For `CC(C)c1ccc(OP(C)(=O)Nc2ccc(SC(F)(F)F)cc2)cc1` (stereo unspecified), the response (vesicle binding) was inactive: 243%. For `CC(C)(C)C(=O)NC(Sc1ccccc1)C(Cl)(Cl)Cl` (stereo unspecified), the response (vesicle binding) was inactive: 538%. In the case of `CCOc1ccc(C2=NCC(CBr)S2)cc1` (stereo unspecified), the response (vesicle binding) is reported as inactive: 304%. With `O=P1(Nc2nc3ccc(Cl)cc3s2)COc2ccccc2O1` (stereo unspecified) the response (vesicle binding) was inactive: 568%. With `CP(=O)(Nc1ccccc1)Oc1ccc(F)cc1` (stereo unspecified) the response (vesicle binding) was inactive: 618%. In the case of `CCCCCOc1ccc(NP(C)(=O)Oc2ccc(Cl)cc2Cl)cc1` (stereo unspecified), the response (vesicle binding) is reported as inactive: 121%. For `O=[N+]([O-])c1cc([N+](=O)[O-])c(OC2CCCCC2O)c([N+](=O)[O-])c1` (stereo unspecified), the response (vesicle binding) was inactive: 246%. For `CN(C)C(=O)Oc1noc2ccccc12`, the response (vesicle binding) was inactive: 1200%. For `CC(NC(=O)COC(=O)C(O)(c1ccccc1)c1ccccc1)c1ccccc1` (stereo unspecified), the response (vesicle binding) was inactive: 192%. For `Cc1ccccc1OP(=O)(Nc1ccccn1)Oc1ccccc1C`, the response (vesicle binding) was inactive: 950%. For `CC(=O)NC(SC(=S)N(CC(C)C)CC(C)C)C(Cl)(Cl)Cl` (stereo unspecified), the response (vesicle binding) was inactive: 298%. For `Cc1ccc(OP(=O)(Nc2ccccn2)Oc2ccc(C)cc2)cc1`, the response (vesicle binding) was inactive: 242%. In the case of `COC(=O)c1cc2c(s1)N=C(c1ccccc1)N(C)P2(=O)N1CCOCC1` (stereo unspecified), the response (vesicle binding) is reported as inactive: 210%. With `CCC(=O)N1C2C3N(C(=O)CC)C1C1N(C(=O)CC)C(C(N1C(=O)CC)N3C(=O)CC)N2C(=O)CC` the response (vesicle binding) was inactive: 196%. In the case of `CCN(CC)CCCOC(=O)C(O)(c1ccccc1)C1CCCCC1` (stereo unspecified), the response (vesicle binding) is reported as inactive: 211%. For `O=C(OC1CN2CCC1CC2)c1ccccc1` (stereo unspecified), the response (vesicle binding) was inactive: 200%. In the case of `CCOC(=O)c1ccc(NP(C)(=O)Oc2ccc(F)cc2)cc1` (stereo unspecified), the response (vesicle binding) is reported as inactive: 327%. In the case of `COc1ccc(OP(C)(=O)Nc2ccc(SC(F)(F)F)cc2)cc1` (stereo unspecified), the response (vesicle binding) is reported as inactive: 305%. For `O=C(NC1CCS(=O)(=O)C1)NP(=S)(Oc1ccccc1)Oc1ccccc1` (stereo unspecified), the response (vesicle binding) was inactive: 133%. For `CCNC(=S)/N=C(\N)N[N+](=O)[O-]`, the response (vesicle binding) was inactive: 592%. With `Cc1ccc(NP(=O)(Oc2cccc(C)c2)Oc2cccc(C)c2)nc1` the response (vesicle binding) was inactive: 618%. In the case of `CCOC(=O)NC(Sc1ccccc1)C(Cl)(Cl)Cl` (stereo unspecified), the response (vesicle binding) is reported as inactive: 353%. For `c1ccc(-c2nn[nH]n2)c(-c2nn[nH]n2)c1`, the response (vesicle binding) was inactive: 289%. With `C(Cc1nn[nH]n1)Cc1nn[nH]n1` the response (vesicle binding) was inactive: 511%. For `Nc1ccc([As](=O)(O)c2ccc([N+](=O)[O-])cc2)cc1`, the response (vesicle binding) was inactive: 53.9%. With `O=C(OC1CN2CCC1CC2)c1cccc(Cl)c1` (stereo unspecified) the response (vesicle binding) was inactive: 221%.
